In patent US8822528B2, “Monensin derivatives for the treatment and prevention of protozoal infections” (Merial Limited, priority 2010, dated 2014):

Test: Solubility of monensin sodium salt in various solvents (weight difference after filtration)
Assay type: physicochemical
Conditions: for Solubility: ambient temperature; for Solubility (grade): grade symbols, key not given
Protocol: Monensin sodium salt (200 g) was mixed with 10 mL of solvent. The solution was stirred for 2 hours and then filtered through sintered glass. The precipitate was then dried and weighed. The difference between the weight of the product initially introduced and the one remaining on the sintered disk after filtration indicated the solubility of the product at ambient temperature in a 10 mL volume.

Monensin sodium salt
Solubility (solvent Acetone): 15.1 mg/mL | Solubility (solvent Acetonitrile): 7.0 mg/mL | Solubility (solvent Chloroform): 20 mg/mL | Solubility (grade) (solvent Chloroform): + + + | Solubility (solvent DMF): 18.7 mg/mL | Solubility (grade) (solvent DMF): + + | Solubility (solvent DMSO): 1.1 mg/mL | Solubility (grade) (solvent DMSO): - - - | Solubility (solvent Ethyl acetate): 11.9 mg/mL | Solubility (solvent H2O): 3.3 mg/mL | Solubility (grade) (solvent H2O): - - | Solubility (solvent Methanol): 20 mg/mL | Solubility (grade) (solvent Methanol): + + + | Solubility (solvent THF): 20 mg/mL | Solubility (grade) (solvent THF): + + + | Solubility (solvent Toluene): 20 mg/mL | Solubility (grade) (solvent Toluene): + + +
